Measured values reported in patent publication US20060094693A1, “Methods and compositions for treating glucose-associated conditions, metabolic syndrome, dyslipidemias and other conditions” (Point Therapeutics, Inc., priority 2004, published 2006).

Amino acid sequences for entries named in this document (tags omitted). Residues count along the entry.
UniProt P14740, 37-767 limits assumed: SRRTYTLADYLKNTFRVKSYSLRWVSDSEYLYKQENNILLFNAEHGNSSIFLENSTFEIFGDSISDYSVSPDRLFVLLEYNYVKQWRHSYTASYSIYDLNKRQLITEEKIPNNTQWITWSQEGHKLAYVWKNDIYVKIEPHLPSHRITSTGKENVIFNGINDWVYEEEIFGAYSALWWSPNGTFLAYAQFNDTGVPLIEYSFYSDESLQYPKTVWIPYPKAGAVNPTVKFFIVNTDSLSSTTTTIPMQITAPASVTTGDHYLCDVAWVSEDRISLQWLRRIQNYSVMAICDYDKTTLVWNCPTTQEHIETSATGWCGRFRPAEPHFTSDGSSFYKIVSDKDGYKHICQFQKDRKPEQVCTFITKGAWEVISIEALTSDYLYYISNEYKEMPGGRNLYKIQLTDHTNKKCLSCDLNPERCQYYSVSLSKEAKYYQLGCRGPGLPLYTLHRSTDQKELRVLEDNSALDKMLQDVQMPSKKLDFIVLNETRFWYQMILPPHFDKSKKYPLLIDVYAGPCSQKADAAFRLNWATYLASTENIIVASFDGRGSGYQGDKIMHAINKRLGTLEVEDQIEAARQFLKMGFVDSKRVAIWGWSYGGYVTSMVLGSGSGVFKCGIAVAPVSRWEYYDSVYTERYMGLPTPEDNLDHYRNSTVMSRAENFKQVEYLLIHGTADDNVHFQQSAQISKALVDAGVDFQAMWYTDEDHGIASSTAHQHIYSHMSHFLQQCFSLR

Legend:
[1] = tested on: human bone marrow stromal cells; test: G-CSF supernatant levels in human bone marrow stromal cell cultures; format: cell-based; conditions: 1 to 10^4 nM, 24 hours
Experimental: Human bone marrow stromal cell cultures. Samples of normal human bone marrow were purchased from Cambrex Bioproducts (Walkersville, Md.) and mononuclear cells were purified over Ficoll-Hypaque (Nycomed, Oslo, Norway). Human stromal layers were established by seeding 4×10^7 mononuclear cells into T75 flasks (Corning) containing 20 ml MyeloCult medium (Stem Cell Technologies, Vancouver, BC) supplemented with 10^−6 M hydrocortisone (Sigma) and incubation at 37° C. in 100% humidified 5% CO2 in air. After one week, half the medium was exchanged, and the cultures incubated for approximately one week more, after which time, a semi-confluent cell layer was formed. Stromal cells were harvested by trypsinization using standard technique and 10^5 cells/well were seeded in multi-well plates in 1 ml of fully supplemented DMEM (InVitrogen, Carlsbad, Calif.). […] Multiwell cultures without the addition of amino boronic dipeptides served as controls. […] Supernatant concentrations of human G-CSF were determined by Quantikine enzyme-linked immunosorbent assay (ELISA; R&D Systems, Minneapolis, Minn.) according to the manufacturer's instructions. […] The effect of each amino boronic dipeptide on the level of supernatant G-CSF was determined by calculating a stimulation index (SI): SI=(mean G-CSF concentration in culture with amino boronic dipeptide)/(mean G-CSF concentration in control culture).

[2] = biological target: T1, plasma DPP-IV (Rattus norvegicus, UniProt P14740); conditions: 10 μmol/kg oral
[3] = biological target: T1, plasma DPP-IV; test: in vivo; conditions: po
[4] = tested on: Zucker fa/fa rats; test: Single oral dose before oral glucose challenge, Zucker Fa/Fa rats (Example 10); format: in vivo
Excerpt: The data shown in FIG. 15 are mean values from 6 rats per treatment.

[5] = biological target: T2, serum DPP-IV (Rattus norvegicus, UniProt P14740); test: Serum DPP-IV inhibition in Lewis rats; format: in vivo; conditions: single oral administration, 2 hours
T2 construct: from tissue; host or cells: serum of Lewis rats dosed with the compounds
Experimental: Assay of serum DPP-IV inhibition in vivo. Varying doses (0.02, 0.2, 2.0, 20.0 μg/mouse) of Glu-boroPro dissolved in normal saline or the saline vehicle alone were administered to BALB/c mice by oral gavage. Each mouse received a single administration of Glu-boroPro or saline, and blood samples were withdrawn from mice 2 hours later. […]. DPP-IV activity was determined by reaction of 10 μl serum with 90 μl of 0.11 mM Ala-Pro-AFC (Enzyme System Products, Dublin, Calif.) in 50 mM HEPES/Na buffer pH 7.6, 140 mM NaCl. Assays were incubated for 30 minutes, stopped and fluorometric measurements made as described in Example 1. […].

[6] = tested on: DIO rats; test: Single oral dose before oral glucose challenge, DIO rats (Example 10); format: in vivo
Excerpt: The data shown in FIG. 16A are mean values from 10 rats per treatment.
The data shown in FIG. 16B are mean values from 10 rats per treatment.

[7] = tested on: Zucker Diabetic Fatty (ZDF) rats; test: 6 week glycemic control study in Zucker Diabetic Fatty rats; format: in vivo; conditions: termination of study
Experimental: The design of the 6 week long study is depicted in FIG. 8. 60 male Zucker Diabetic Fatty (ZDF) rats (5 weeks of age) were obtained from Charles River Labs. The animals are housed singly and allowed to acclimatize for 1 week before the initiation of the study. 24-hour food intake and body weight was measured gravimetrically twice weekly from the start of housing. HbA1C levels were measured at Day 0, 7, 14, 28 and 46. OGTT was administered on Day 2-3, 15 minutes after the administration of the drugs. OGTT was administered again at the end of the study but in this case, drugs were given 15 hours prior to the OGTT. The 24-hour glucose profile was monitored at day 14-15 of the study.
The insulin sensitivity index was calculated at the termination of the study according to the method described by Matsuda and DeFronzo (Diabetes Care. 1999 Sep.;22(9):1462-70). […] There was a dose response relationship for the Glu-boroPro group and the improvements in the insulin sensitivity index.

For `N[C@@H](CCC(=O)O)C(=O)N1CCC[C@H]1B(O)O` [Glu-boroPro, glutamic acid boroproline], the “supernatant G-CSF level (stimulation index)” value [1] was “did not appear to stimulate increased levels of G-CSF”, the “inhibition of plasma DPP-IV activity” value ([2]; at t5min) was “Marked inhibition” and the “inhibition of plasma DPP-IV activity” value ([2]; by t0) was “maximal inhibition”. The remaining activity at 10 µmol/kg ([3]; read-out: plasma DPP-IV activity, % of control values, 10 μmol/kg oral, t24hours) was 11%, the remaining activity at 10 µmol/kg ([3]; read-out: plasma DPP-IV activity, % of control values, 10 μmol/kg oral, t48hours) was 25% and the “effect on insulin and GLP-1 responses relative to NVP-LAF237” value [4] was “equivalent to that achieved with an optimal dose of the cyano-pyrrolidine (CP) inhibitor of DPP-IV (NVP-LAF237)”. The “levels of un-degraded, active form of GLP-1” value ([4]; single oral dose 15 minutes prior to oral glucose) was “increased levels”, the ED50 ([5]; rat, read-out: ID50 (dose causing 50% reduction in serum DPP-IV activity)) was 0.095 mg/kg and the “ID50 (dose causing 50% reduction in serum DPP-IV activity)” value [5] was 0.095 mg/kg. The “effect on insulin response relative to NVP-LAF237” value [6] was “equivalent to that achieved with an optimal dose of the cyano-pyrrolidine (CP) inhibitor of DPP-IV (NVP-LAF237)”, the “effect on insulin secretion AUC relative to NVP-LAF237” value [6] was “equivalent to that achieved with an optimal dose of the cyano-pyrrolidine (CP) inhibitor of DPP-IV (NVP-LAF237)” and the insulin sensitivity index ([7]; 3 micromole/kg) was “significant improvement”. The insulin sensitivity index ([7]; 10 micromole/kg) was “significant improvement”.

Like-named read-outs stand apart in the source and are kept apart here.
